Assay results reported in patent EP4291198B1, “THERAPEUTICALLY ACTIVE COMPOUNDS AND THEIR METHODS OF USE” (dated 2026).
Where two headings read alike, the source gives them in different places.

What was measured:
IDH1 R132H = IDH1 R132H homodimer enzymatic assay, NADPH depletion (diaphorase/resazurin)
Description: (§1) A test compound is prepared as 10 mM stock in DMSO and diluted to 50X final concentration in DMSO, for a 50 µl reaction mixture. IDH enzyme activity converting alpha-ketoglutarate to 2-hydroxyglutaric acid is measured using a NADPH depletion assay. In the assay the remaining cofactor is measured at the end of the reaction with the addition of a catalytic excess of diaphorase and resazurin, to generate a fluorescent signal in proportion to the amount of NADPH remaining. IDH1-R132 homodimer enzyme is diluted to 0.125 µg/ml in 40 µl of Assay Buffer(150 mM NaCl, 20 mM Tris-Cl pH 7.5, 10 mM MgCl2, 0.05% BSA, 2 mM b-mercaptoethanol); 1 µl of test compound dilution in DMSO is added and the mixture is incubated for 60 minutes at room temperature. The reaction is started with the addition of 10 µl of Substrate Mix (20 µl NADPH, 5 mM alpha-ketoglutarate, in Assay Buffer) and the mixture is incubated for 90 minutes at room temperature. The reaction is terminated with the addition of 25 µl of Detection Buffer (36 µg/ml diaphorase, 30 mM resazurin, in 1X Assay Buffer), and is incubated for 1 minute before reading on a SpectraMax platereader at Ex544/Em590.
as §1, with “remaining. IDH1-R132H” for “remaining. IDH1-R132”, “mM b-mercaptoethanol) containing 5 µM NADPH and 37.5 µM NADP;” for “mM b-mercaptoethanol);”, “for 60” for “for 90”

[1] = tested on: IDH1 wt / IDH1 R132H heterodimer; test: IDH1 wt / IDH1 R132H heterodimer enzymatic assay, NADPH depletion (diaphorase/resazurin)
Description: In the primary reaction, the reduction of α-KG acid to 2HG is accompanied by a concomitant oxidation of NADPH to NADP. The amount of NADPH remaining at the end of the reaction time is measured in a secondary diaphorase/resazurin reaction in which the NADPH is consumed in a 1:1 molar ratio with the conversion of resazurin to the highly fluorescent resorufin.
The primary reaction is performed in a volume of 50 µL 1X Buffer (150 mM NaCl, 20 mM Tris 7.5, 10 mM MgCl2, 0.05% (w/v) bovine serum albumin), contained 0.25 ug/mL (2.7 nM) IDH1 wt / IDH1 R132H heterodimer, 0.3 mM alpha-ketoglutarate, 4 µM NADPH, and either 300 µM NADP (saturated) or 30 µM NADP (without saturation), and 1 uL of 50X compound in DMSO. The mixture of compound, enzyme, and cofactor is pre-incubated at room temperature for 1 hr prior to the addition of alpha-ketoglutarate. To perform the secondary reaction, 10 uL of 1X buffer containing 36 µg/ml diaphorase and 30 mM resazurin is added to the primary reaction and incubated for a further 5 minutes at 25 °C. Florescence is read on a Spectramax platereader at Ex 544 Em 590. Compounds or compound dilutions are prepared in 100% DMSO concentration and diluted 1:50 into the final reaction. IDH1 wt / IDH1 R132C is assayed under similar conditions except that 1X Buffer is 50 mM K2HP04, pH 6.5; 10 mM MgCl2; 10% glycerol; 0.03% (w/v) bovine serum albumin and final concentrations are 0.4 ug/mL (4.3 nM) IDH1 wt / IDH1 R132C heterodimer, 0.02 mM alpha-ketoglutarate, 4 uM NADPH, and either 300 µM NADP (saturated) or 30 µM NADP (without saturation). IC50s are determined.
(§2) IDH1 or IDH2 wildtype (wt) and mutant heterodimers are expressed and purified by methods known in the art. For example, IDH1wt/R132m heterodimer is expressed and purified as follows. Co-expression of IDH1wt-his and IDH1R132C-flag is carried out in sf9 insect cells. Cells (25g) are resuspended in 250 ml of 50mM Tirs, 500mM NaCl, pH7.4, at 4°C with stirring. Cells are disrupted with 4 passes through an M-Y110 Micro fluidizer (Microfluidics) set to 500 psi, and then centrifuged at 22,000 rcf for 20min at 4°C. The supernatant is harvested and loaded at 15cm/h on a Histrap FF 5*1ml column (GE) which is equilibrated with 50mM Tirs, 500mM NaCl, pH7.4. Host cell contaminants are removed by washing the column with equilibration buffer followed by equilibration buffer containing 20mM imidazole and 60mM imidazole to baseline. IDH1wt-his homodimer and IDH1wt-his / IDH1R132C-flag are eluted by equilibration buffer containing 250mM imidazole. Fractions eluted by 250mM imidazole are pooled together and loaded at 15cm/h onto a column pre-packed with 10ml ANTI-FLAG® M2 Affinity Gel (Sigma), the column is equilibrated with 50mM Tris, 500mM NaCl, pH7.4. After washing with equilibration buffer, IDH1wt-his/IDH1R132C-flag heterodimer is eluted by equilibration buffer containing flag peptide (0.2mg/ml). Aliquots of IDH1wt-his/IDH1R132C-flag are flash frozen in liquid N2 and stored at -80°C. Same conditions are used for the purification of IDH1wt-his/IDH1R132H-flag.

IDH2 R140Q = IDH2 R140Q enzymatic assay, cofactor depletion (diaphorase/resazurin)
Description: Compounds are assayed for IDH2 R140Q inhibitory activity through a cofactor depletion assay. […] The reaction is terminated by the addition of a second enzyme, diaphorase, and a corresponding substrate, resazurin. Diaphorase reduces resazurin to the highly fluorescent resorufin with the concomitant oxidation of NADPH to NADP, both halting the IDH2 reaction by depleting the available cofactor pool and facilitating quantitation of the amount of cofactor remaining after a specific time period through quantitative production of an easily detected fluorophore.
Specifically, into each of 12 wells of a 384-well plate, 1 µl of 100x compound dilution series is placed, followed by the addition of 40 µl of buffer (50 mM potassium phosphate (K2HPO4), pH 7.5; 150 mM NaCl; 10 mM MgCl2, 10% glycerol, 0.05% bovine serum albumin, 2 mM beta-mercaptoethanol) containing 0.25 µg/ml IDH2 R140Q protein. The test compound is then incubated for one hour at room temperature with the enzyme; before starting the IDH2 reaction with the addition of 10 µl of substrate mix containing 4 µM NADPH and 1.6 mM α-KG in the buffer described above. After a further 16 hours of incubation at room temperature, the reaction is halted, and the remaining NADPH measured through conversion of resazurin to resorufin by the addition of 25 µl Stop Mix (36 µg/ml diaphorase enzyme and 60 µM resazurin; in buffer). After one minute of incubation the plate is read on a plate reader at Ex544/Em590.
For determination of the inhibitory potency of compounds against IDH2 R140Q in an assay format similar to the above, a similar procedure is performed, except that the final testing concentration is 0.25 µg/ml IDH2 R140Q protein, 4 µM NADPH and 1.6 mM α-KG.
For determination of the inhibitory potency of compounds against IDH2 R140Q in a high throughput screening format, a similar procedure is performed, except that 0.25 µg/ml IDH2 R140Q protein is utilized in the preincubation step, and the reaction is started with the addition of 4 µM NADPH and 8 µM α-KG.
Specifically, into each of 12 wells of a 384-well plate, 1 µl of 50x compound dilution series is placed, followed by the addition of 40 µl of buffer (50 mM potassium phosphate (K2HPO4), pH 7.5; 150 mM NaCl; 10 mM MgCl2, 10% glycerol, 0.05% bovine serum albumin, 2 mM beta-mercaptoethanol) containing 0.39 µg/ml IDH2 R140Q protein, 5 uM NADPH and 750 uM NADP. The test compound is then incubated for 16 hrs at room temperature with the enzyme and cofactors before starting the IDH2 reaction with the addition of 10 µl of substrate mix containing 8 mM α-KG (final concentration 1.6 mM) in the buffer described above. After a further 1 hour of incubation at room temperature, the reaction is halted, and the remaining NADPH measured through conversion of resazurin to resorufin by the addition of 25 µl Stop Mix (36 µg/ml diaphorase enzyme and 60 µM resazurin; in buffer). After one minute of incubation the plate is read on a plate reader at Ex544/Em590.

IDH1 WT = test: IDH1 wild-type enzymatic assay (NADPH/diaphorase/resazurin type)
WT/R140Q = test: IDH2 WT/R140Q heterodimer enzymatic assay
Description: as §2

IDH2 WT = test: IDH2 wild-type enzymatic assay
[2] = read-out: IDH1 R132H IC50 1h, 1h
[3] = read-out: IDH1 R132H IC50 16h, 16h
[4] = read-out: WT/R132H IC50 16 h, 16 h
[5] = read-out: IDH2 R140Q IC50 1h, 1h
[6] = read-out: IDH2 R140Q IC50 16h, 16h
[7] = read-out: IDH1 WT IC50 16h, 16h
[8] = read-out: WT/R140Q IC50 16 h, 16 h
[9] = read-out: IDH2 WT IC50 16h, 16h

IC50 (WT/R140Q; [8]) | IC50 (IDH2 WT; [9]) | IC50 (WT/R140Q; read-out: WT/R140Q IC50 1h, 1h) | IC50 (IDH2 WT; read-out: IDH2 WT IC50 1h, 1h) | Compound | IC50 (IDH1 R132H; [2]) | IC50 (IDH1 R132H; [3]) | IC50 ([1]; read-out: WT/R132H IC50 1h, 1h) | IC50 [1, 4] | IC50 (IDH2 R140Q; [5]) | IC50 (IDH2 R140Q; [6]) | IC50 (IDH1 WT; read-out: IDH1 WT IC50 1h, 1h) | IC50 (IDH1 WT; [7])
 |  |  |  | 6,6'-(6,6'-disulfanediylbis(pyridine-6,2-diyl))bis(N2,N4-bis((R)-1,1,1 -trifluoropropan-2-yl)-1,3,5-triazine-2,4-diamine) | 501 nM | 222 nM | 415 nM | 591 nM | 1300 nM | 3510 nM | 1520 nM | 832 nM
7720 nM | 5060 nM |  |  | C[C@@H](Nc1nc(N[C@H](C)C(F)(F)F)nc(-c2cccc(S)n2)n1)C(F)(F)F | 576 nM | 711 nM | 717 nM | 246 nM | 2340 nM | 1560 nM | 5550 nM | 1260 nM
264 nM | 209 nM | 1710 nM | 1200 nM | C[C@@H](Nc1nc(N[C@H](C)C(F)(F)F)nc(-c2cccc([S+](C)[O-])n2)n1)C(F)(F)F (stereo partly shown) | 451 nM |  | 81 nM | 69 nM | 552 nM | 146 nM | 4880 nM | 161 nM
125 nM | 98 nM | 1230 nM | 910 nM | C[C@@H](Nc1nc(N[C@H](C)C(F)(F)F)nc(-c2cccc(S(C)(=O)=O)n2)n1)C(F)(F)F | 168 nM | 394 nM | 22 nM | 34 nM | 430 nM | 59 nM | 1580 nM | 75 nM
40 nM | 37 nM | 488 nM | 410 nM | CSc1cccc(-c2nc(N[C@H](C)C(F)(F)F)nc(N[C@H](C)C(F)(F)F)n2)n1 | 36 nM |  | 14 nM | 2 nM | 193 nM | 21 nM | 1590 nM | 42 nM
